Measurements from PMC8600089, “The development of a high-affinity conformation-sensitive antibody mimetic using a biocompatible copolymer carrier (iBody)” (The Journal of Biological Chemistry, 2021).

By UniProt entry, the sequences of proteins in these tests, tags left out. Residues count along the entry.
UniProt Q04609, 44-750 limits assumed: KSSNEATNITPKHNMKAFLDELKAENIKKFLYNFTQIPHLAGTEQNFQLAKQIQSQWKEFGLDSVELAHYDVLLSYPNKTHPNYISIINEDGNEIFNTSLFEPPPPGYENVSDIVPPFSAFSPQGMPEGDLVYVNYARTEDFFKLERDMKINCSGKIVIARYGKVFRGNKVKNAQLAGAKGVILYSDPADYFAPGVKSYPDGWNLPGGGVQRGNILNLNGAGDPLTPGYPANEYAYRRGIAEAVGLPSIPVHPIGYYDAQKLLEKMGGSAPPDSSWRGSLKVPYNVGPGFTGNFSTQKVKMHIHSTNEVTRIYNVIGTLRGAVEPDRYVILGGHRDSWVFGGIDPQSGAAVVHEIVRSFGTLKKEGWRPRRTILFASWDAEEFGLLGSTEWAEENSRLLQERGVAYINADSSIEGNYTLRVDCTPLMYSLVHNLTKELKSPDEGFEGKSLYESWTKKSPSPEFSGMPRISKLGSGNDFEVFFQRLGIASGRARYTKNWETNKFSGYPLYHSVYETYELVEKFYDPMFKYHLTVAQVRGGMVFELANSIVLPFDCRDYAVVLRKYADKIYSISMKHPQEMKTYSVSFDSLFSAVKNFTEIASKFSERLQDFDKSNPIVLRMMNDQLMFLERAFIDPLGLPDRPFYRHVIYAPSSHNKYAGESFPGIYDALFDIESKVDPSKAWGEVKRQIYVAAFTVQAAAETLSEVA

Biological target: recombinant extracellular part of PSMA (Homo sapiens, UniProt Q04609)
Test: Competition ELISA: iBody 1 binding to PSMA versus PSMA inhibitors
Settings: iBody 1 (5 nM per legend); inhibitor pre-incubated 30 min, then iBody 60 min at RT; representative of >3 experiments, n = 3

Structure (SMILES): NCCOCCOCCOCCOCCOCCC(=O)N(CCCCC(NC(=O)NC(CCC(=O)O)C(=O)O)C(=O)O)Cc1ccc(Br)cc1 (stereo not shown)
- competition with binding of iBody 1 to PSMA on ELISA (in words): outcompeted
